Test results from ChEMBL document CHEMBL1671721, “Chemical validation of phosphodiesterase C as a chemotherapeutic target in Trypanosoma cruzi, the etiological agent of Chagas' disease” (Antimicrob Agents Chemother, 2010).

Experiment: Selectivity ratio, IC50 for Trypanosoma cruzi Y PDEC to IC50 for human PDE4

For `CCCC(=O)c1ccc(OC2CCOC2)c(OC)c1` (configuration not stated), the Ratio IC50 was 4.

Compound `CCCCC(=O)c1ccc(OC2CCOC2)c(OC)c1` (configuration not stated) has a Ratio IC50 of 4.
